Data from patent US20260166162A1, “CARBON CHAIN SUBSTANCE FOR REGULATING TRANSMEMBRANE TRANSPORT AND FLUIDITY OF CELL MEMBRANES, AND PREPARATION AND USE THEREOF” (priority 2022, published 2026).

How the values were obtained:
Escherichia coli = assay: Bacteriostasis/sterilization test (plate count); details: 2 h
Staphylococcus aureus [1] = assay: Bacteriostasis/sterilization test (plate count); details: 2 h
[2] = system: Methicillin-resistant Staphylococcus aureus; assay: Bacteriostasis/sterilization test (plate count); details: 2 h; for Sterilization rate (%): listed as printed as Methicillin-resistant Streptococcus pneumoniae
Streptococcus pneumoniae = assay: Bacteriostasis/sterilization test (plate count); details: 2 h
Klebsiella pneumoniae = assay: Bacteriostasis/sterilization test (plate count); details: 2 h
Pseudomonas aeruginosa = assay: Bacteriostasis/sterilization test (plate count); details: 2 h
Candida albicans = assay: Fungicidal test (plate count); details: 0.035 mM, 2 h
Aspergillus niger = assay: Fungicidal test (plate count); details: 0.035 mM, 2 h
Actinomyces viscosus = assay: Fungicidal test (plate count); details: 0.035 mM, 2 h
Chaetomium globosum = assay: Fungicidal test (plate count); details: 0.035 mM, 2 h
Aspergillus protuberus = assay: Fungicidal test (plate count); details: 0.035 mM, 2 h
Microsporum canis = assay: Fungicidal test (plate count); details: 0.035 mM, 2 h
Staphylococcus aureus [3] = assay: Electron microscopy of bacterial structure after treatment; format: cell-based; details: treatment 1, 2, 5 min
[4] = Retention time in the lung after lung lavage; details: lungs taken after 1, 4, 8, 12 h

| Substance | Sterilization rate (%) (Escherichia coli; concentration not given) | Sterilization rate (%) (Staphylococcus aureus [1]; concentration not given) | Sterilization rate (%) ([2]; concentration not given) | Sterilization rate (%) (Streptococcus pneumoniae; concentration not given) | Sterilization rate (%) (Klebsiella pneumoniae; concentration not given) | Sterilization rate (%) (Pseudomonas aeruginosa; concentration not given) | other results |
| --- | --- | --- | --- | --- | --- | --- | --- |
| EPA-HSA: serum albumin grafted with eicosapentaenoic acid (Example 1) | >99 | >99 | >99 | >99 | >99 | >99 | – |
| ALA-HSA: serum albumin grafted with linolenic acid by amide bonds (Example 1) | >99 | >99 | >99 | >99 | >99 | >99 | Sterilization rate (%) (Candida albicans): >99%; Sterilization rate (%) (Aspergillus niger): >99%; Sterilization rate (%) (Actinomyces viscosus): >99%; Sterilization rate (%) (Chaetomium globosum): >99%; Sterilization rate (%) (Aspergillus protuberus): >99%; Sterilization rate (%) (Microsporum canis): >99%; Sterilization rate (%) (Escherichia coli; 0.035 mM): >99%; Sterilization rate (%) (Staphylococcus aureus [1]; 0.035 mM): >99%; Sterilization rate (%) ([2]; 0.035 mM): >99%; Sterilization rate (%) (Streptococcus pneumoniae; 0.035 mM): >99%; Sterilization rate (%) (Klebsiella pneumoniae; 0.035 mM): >99%; Sterilization rate (%) (Pseudomonas aeruginosa; 0.035 mM): >99% |
| DHA-HSA: serum albumin grafted with docosahexaenoic acid (Example 1) | >99 | >99 | >99 | >99 | >99 | >99 | membrane detachment of Staphylococcus aureus (TEM) (Staphylococcus aureus [3]): bacterial membrane detachment can be seen at 1 min; retention in the lung (fluorescence of DiI-labelled complex) [4]: obvious fluorescence after 8 h; bacteriostasis rate (Escherichia coli; concentration 18 mM-[…]): 100%; IC50 (Escherichia coli; read-out: median inhibition concentration): 9 µM; median inhibition concentration (MIC) [2]: 9 µM; inhibition rate ([2]; concentration 18 mM-[…]): 100% |
